# Measured values from patent US20110177074A1 (ZymoGenetics, published 2011).
# By UniProt entry, the sequences of proteins in these tests, tags left out. Chains listed by the source or under a name are the forms on record and can include a tag or linker.
# UniProt P15692, other isoform, or with tags, fused parts or gaps: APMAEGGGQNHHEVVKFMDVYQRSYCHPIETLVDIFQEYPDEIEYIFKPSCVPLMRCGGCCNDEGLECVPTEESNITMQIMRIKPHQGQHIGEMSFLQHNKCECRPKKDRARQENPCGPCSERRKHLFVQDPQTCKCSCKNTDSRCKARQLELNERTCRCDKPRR
# B1: ranibizumab (anti-VEGFA affinity-matured Fab, Genentech) (Fab, V domains shown)
# VH: not shown
# VL: not shown
# Molecular target: T1, human VEGF-A165 (human, UniProt P15692 207-395)
# T1 construct: R&D Systems; homodimer; also called recombinant human VEGF-A
# Assay: SPR, VEGF-A immobilised, 1:1 dissociation fit
binder,measurement,value
B1,koff,2e-05 s⁻¹
